The numbers were not newly measured in patent US20160034667A1, “TAILORED DRUG THERAPIES AND METHODS AND SYSTEMS FOR DEVELOPING SAME” (COMPANION DX REFERENCE LAB, LLC, priority 2014, published 2016), which cites them from elsewhere.

The conditions of this data set: in vivo.

In the case of `Cn1c(=O)c2[nH]cnc2n(C)c1=O` [Theophylline], the Critical is >30 µg/mL.
